The sequences below were run against TLN1 PTB (Homo sapiens, UniProt Q9Y490).
Assay type: binding

The chains behind the UniProt entries cited, without tags or fusion partners. Residues count along the entry.
UniProt Q9Y490, 309-401: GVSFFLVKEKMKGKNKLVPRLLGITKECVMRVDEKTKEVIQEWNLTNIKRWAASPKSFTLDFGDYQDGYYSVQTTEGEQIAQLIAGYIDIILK

Sequence | DMS-derived PSSM value of the single-substitution variant
TDERSWVYSPLHYSAQ Y13Q (TDERSWVYSPLHQSAQ) | 0.03935
TDERSWVYSPLHYSAQ Y13R (TDERSWVYSPLHRSAQ) | 0.007546
TDERSWVYSPLHYSAQ Y13S (TDERSWVYSPLHSSAQ) | 0.138
TDERSWVYSPLHYSAQ Y13T (TDERSWVYSPLHTSAQ) | 0.01355
TDERSWVYSPLHYSAQ Y13V (TDERSWVYSPLHVSAQ) | 0.02098
TDERSWVYSPLHYSAQ Y13W (TDERSWVYSPLHWSAQ) | 0.01059
TDERSWVYSPLHYSAQ Y13Y | 0.1302

The sequences below were run on AP2M1 MU.
Assay type: binding, human

Sequence | PSSM value of the substitution (DMS by phage display)
QVVSDIDYVPLKSATA A14A | 0.005667
QVVSDIDYVPLKSATA A14D (QVVSDIDYVPLKSDTA) | 0.02736
QVVSDIDYVPLKSATA A14E (QVVSDIDYVPLKSETA) | 0
QVVSDIDYVPLKSATA A14F (QVVSDIDYVPLKSFTA) | 0.0004615
QVVSDIDYVPLKSATA A14G (QVVSDIDYVPLKSGTA) | 0
QVVSDIDYVPLKSATA A14H (QVVSDIDYVPLKSHTA) | 0.0006386
QVVSDIDYVPLKSATA A14I (QVVSDIDYVPLKSITA) | 0.4923
QVVSDIDYVPLKSATA A14K (QVVSDIDYVPLKSKTA) | 0
QVVSDIDYVPLKSATA A14L (QVVSDIDYVPLKSLTA) | 9.087e-5
QVVSDIDYVPLKSATA A14M (QVVSDIDYVPLKSMTA) | 0
QVVSDIDYVPLKSATA A14N (QVVSDIDYVPLKSNTA) | 0.3414
QVVSDIDYVPLKSATA A14P (QVVSDIDYVPLKSPTA) | 0.0001771
QVVSDIDYVPLKSATA A14Q (QVVSDIDYVPLKSQTA) | 0
QVVSDIDYVPLKSATA A14R (QVVSDIDYVPLKSRTA) | 0
QVVSDIDYVPLKSATA A14S (QVVSDIDYVPLKSSTA) | 0.0002239
QVVSDIDYVPLKSATA A14T (QVVSDIDYVPLKSTTA) | 0.09674
QVVSDIDYVPLKSATA A14V (QVVSDIDYVPLKSVTA) | 0
QVVSDIDYVPLKSATA A14W (QVVSDIDYVPLKSWTA) | 0.03489
QVVSDIDYVPLKSATA A14Y (QVVSDIDYVPLKSYTA) | 0
QVVSDIDYVPLKSATA A16A | 0.002611
QVVSDIDYVPLKSATA A16D (QVVSDIDYVPLKSATD) | 0.006462
QVVSDIDYVPLKSATA A16E (QVVSDIDYVPLKSATE) | 0

Sequence | PSSM value of the substitution (DMS by phage display)
QVVSDIDYVPLKSATA A16F (QVVSDIDYVPLKSATF) | 0.02903
QVVSDIDYVPLKSATA A16G (QVVSDIDYVPLKSATG) | 0.003233
QVVSDIDYVPLKSATA A16H (QVVSDIDYVPLKSATH) | 0.0006219
QVVSDIDYVPLKSATA A16I (QVVSDIDYVPLKSATI) | 0.001288
QVVSDIDYVPLKSATA A16K (QVVSDIDYVPLKSATK) | 0
QVVSDIDYVPLKSATA A16L (QVVSDIDYVPLKSATL) | 0.02555
QVVSDIDYVPLKSATA A16M (QVVSDIDYVPLKSATM) | 0
QVVSDIDYVPLKSATA A16N (QVVSDIDYVPLKSATN) | 0.0001031
QVVSDIDYVPLKSATA A16P (QVVSDIDYVPLKSATP) | 0.0003513
QVVSDIDYVPLKSATA A16Q (QVVSDIDYVPLKSATQ) | 0.8881
QVVSDIDYVPLKSATA A16R (QVVSDIDYVPLKSATR) | 0.0005157
QVVSDIDYVPLKSATA A16S (QVVSDIDYVPLKSATS) | 0.004622
QVVSDIDYVPLKSATA A16T (QVVSDIDYVPLKSATT) | 0.0002126
QVVSDIDYVPLKSATA A16V (QVVSDIDYVPLKSATV) | 0.03722
QVVSDIDYVPLKSATA A16W (QVVSDIDYVPLKSATW) | 0
QVVSDIDYVPLKSATA A16Y (QVVSDIDYVPLKSATY) | 0.0001031
QVVSDIDYVPLKSATA D5A (QVVSAIDYVPLKSATA) | 0.03762
QVVSDIDYVPLKSATA D5D | 0.08019
QVVSDIDYVPLKSATA D5E (QVVSEIDYVPLKSATA) | 0.02816
QVVSDIDYVPLKSATA D5F (QVVSFIDYVPLKSATA) | 0.03727
QVVSDIDYVPLKSATA D5G (QVVSGIDYVPLKSATA) | 0.007768
QVVSDIDYVPLKSATA D5H (QVVSHIDYVPLKSATA) | 0

Sequence | PSSM value of the substitution (DMS by phage display)
QVVSDIDYVPLKSATA D5I (QVVSIIDYVPLKSATA) | 0
QVVSDIDYVPLKSATA D5K (QVVSKIDYVPLKSATA) | 0
QVVSDIDYVPLKSATA D5L (QVVSLIDYVPLKSATA) | 0
QVVSDIDYVPLKSATA D5M (QVVSMIDYVPLKSATA) | 0
QVVSDIDYVPLKSATA D5N (QVVSNIDYVPLKSATA) | 0.06497
QVVSDIDYVPLKSATA D5P (QVVSPIDYVPLKSATA) | 0.7415
QVVSDIDYVPLKSATA D5Q (QVVSQIDYVPLKSATA) | 0.002506
QVVSDIDYVPLKSATA D5R (QVVSRIDYVPLKSATA) | 0
QVVSDIDYVPLKSATA D5S (QVVSSIDYVPLKSATA) | 0
QVVSDIDYVPLKSATA D5T (QVVSTIDYVPLKSATA) | 0
QVVSDIDYVPLKSATA D5V (QVVSVIDYVPLKSATA) | 0
QVVSDIDYVPLKSATA D5W (QVVSWIDYVPLKSATA) | 0
QVVSDIDYVPLKSATA D5Y (QVVSYIDYVPLKSATA) | 0
QVVSDIDYVPLKSATA D7A (QVVSDIAYVPLKSATA) | 0.001907
QVVSDIDYVPLKSATA D7D | 0.004403
QVVSDIDYVPLKSATA D7E (QVVSDIEYVPLKSATA) | 0.8144
QVVSDIDYVPLKSATA D7F (QVVSDIFYVPLKSATA) | 0
QVVSDIDYVPLKSATA D7G (QVVSDIGYVPLKSATA) | 6.7986e-5
QVVSDIDYVPLKSATA D7H (QVVSDIHYVPLKSATA) | 0.01743
QVVSDIDYVPLKSATA D7I (QVVSDIIYVPLKSATA) | 0
QVVSDIDYVPLKSATA D7K (QVVSDIKYVPLKSATA) | 6.7986e-5
QVVSDIDYVPLKSATA D7L (QVVSDILYVPLKSATA) | 0

Sequence | PSSM value of the substitution (DMS by phage display)
QVVSDIDYVPLKSATA D7M (QVVSDIMYVPLKSATA) | 0.0006322
QVVSDIDYVPLKSATA D7N (QVVSDINYVPLKSATA) | 0
QVVSDIDYVPLKSATA D7P (QVVSDIPYVPLKSATA) | 0.0014
QVVSDIDYVPLKSATA D7Q (QVVSDIQYVPLKSATA) | 0
QVVSDIDYVPLKSATA D7R (QVVSDIRYVPLKSATA) | 0.000174
QVVSDIDYVPLKSATA D7S (QVVSDISYVPLKSATA) | 0.001097
QVVSDIDYVPLKSATA D7T (QVVSDITYVPLKSATA) | 0.1574
QVVSDIDYVPLKSATA D7V (QVVSDIVYVPLKSATA) | 0.0005325
QVVSDIDYVPLKSATA D7W (QVVSDIWYVPLKSATA) | 0.0003554
QVVSDIDYVPLKSATA D7Y (QVVSDIYYVPLKSATA) | 0.000174
QVVSDIDYVPLKSATA I6A (QVVSDADYVPLKSATA) | 4.874e-5
QVVSDIDYVPLKSATA I6D (QVVSDDDYVPLKSATA) | 0.0001203
QVVSDIDYVPLKSATA I6E (QVVSDEDYVPLKSATA) | 0
QVVSDIDYVPLKSATA I6F (QVVSDFDYVPLKSATA) | 0.000182
QVVSDIDYVPLKSATA I6G (QVVSDGDYVPLKSATA) | 0
QVVSDIDYVPLKSATA I6H (QVVSDHDYVPLKSATA) | 0.001687
QVVSDIDYVPLKSATA I6I | 0.001559
QVVSDIDYVPLKSATA I6K (QVVSDKDYVPLKSATA) | 0
QVVSDIDYVPLKSATA I6L (QVVSDLDYVPLKSATA) | 0
QVVSDIDYVPLKSATA I6M (QVVSDMDYVPLKSATA) | 0
QVVSDIDYVPLKSATA I6N (QVVSDNDYVPLKSATA) | 7.156e-5
QVVSDIDYVPLKSATA I6P (QVVSDPDYVPLKSATA) | 4.874e-5
